Measured values reported in publication PMC10838150 (Toxicology in vitro : an international journal published in …, 2021).
Read-outs that look alike come from different tables or passages of the source.

What was measured:
[1] = system: PHHs; conditions: 150 minutes, 50 μM BPAF or BPS
[2] = system: MCF7; conditions: 50 μM BPAF or BPS
[3] = system: HepG2; conditions: 50 μM BPAF or BPS
[4] = system: HEK293; conditions: 50 μM BPAF or BPS

Row | Substance | Phase II Metabolite Formation Rate [1] | Phase II Metabolite Formation Rate ([2]; MCF7, 150 minutes) | Phase II Metabolite Formation Rate ([2]; MCF7, 24 hours) | Phase II Metabolite Formation Rate ([3]; HepG2, 150 minutes) | Phase II Metabolite Formation Rate ([3]; HepG2, 24 hours) | Phase II Metabolite Formation Rate ([4]; HEK293, 150 minutes) | Phase II Metabolite Formation Rate ([4]; HEK293, 24 hours)
1 | bisphenol S 2 sulfate conjugates [BPS 2S] | -------------^1 | -------------^1 | -------------^1 | -------------^1 | -------------^1 |  | 
2 | bisphenol S glucuronide [BPS G] |  | -------------^1 | -------------^1 | -------------^1 |  | -------------^1 | 53.8 ± 6.89 Peak area/minute-million cells
